Usually Ki stands for a measure of affinity in units of concentration, obtained from inhibition or displacement. High values mean weaker binding, low ones tighter binding.

Protein sequences, listed by entry. Tags and fused reporters are not part of them.
UniProt Q99705, whole entry E4Q/A5T: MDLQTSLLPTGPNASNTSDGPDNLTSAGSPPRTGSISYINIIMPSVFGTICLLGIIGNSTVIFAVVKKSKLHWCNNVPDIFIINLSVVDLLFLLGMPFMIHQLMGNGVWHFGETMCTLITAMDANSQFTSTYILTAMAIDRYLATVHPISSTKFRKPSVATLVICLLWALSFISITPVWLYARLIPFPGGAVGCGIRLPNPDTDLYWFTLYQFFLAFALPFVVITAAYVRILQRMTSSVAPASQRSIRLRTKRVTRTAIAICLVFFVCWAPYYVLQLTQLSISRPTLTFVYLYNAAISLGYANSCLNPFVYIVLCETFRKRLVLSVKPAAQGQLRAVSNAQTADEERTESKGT

These results are taken from patent publication US9499482B2.

This assay has as its target human melanin concentrating hormone receptor (MCHR1), mutated (E4Q, A5T) hMCHR1 (Homo sapiens (Human), UniProt Q99705, A5T/E4Q). Nature of the assay: Radioligand binding assay for assessment of MCHR1 activity ([125I]-MCH competition, HEK-293 membranes). As to conditions: membranes from HEK-293 cells expressing mutated (E4Q, A5T) hMCHR1; 0.06-0.1 nM [Phe13,[125I]Tyr19]-MCH.

`CCc1cc(N2CC[C@H](Oc3ccc(C4CC4)cc3)C2=O)ccc1OCCN1CC[C@@H](F)C1` gave a Ki of 2 nM.

On to `CCc1cc(N2CC[C@H](Oc3ccc(C4CC4)cc3)C2=O)ccc1OCCN1CC[C@H](F)C1`, for which the inhibition constant Ki was determined as 3 nM.
